The entries are a selection whose mix differs from that of the whole data set. Some tests of the compounds listed are not included; inactive here does not mean inactive elsewhere. Calls of active or inactive are those of the source.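 Rule for the calls: active = versus positive control, 20 µM dose yields 30% or more activation; inactive = the rest.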

This experiment in a line: IRE1-XBP1 pathway stimulators – cell-based, CHO-XBP1 luciferase reporter, luminescence, uHTS, primary screen (AID 463104).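 Note: 100% = tunicamycin at 10 µg/mL and 0% = DMSO only wells.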 The settings on record: IRE1-XBP1 UPR activation, at 20 µM, hits give high values, percent of tunicamycin response, DMSO as zero. In short, it runs like this:
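incubation = overnight seeding at 37 °C, 6 h compound treatment at 37 °C | assay system = CHO-XBP1 cells stably carrying IRE1-XBP1-driven luciferase reporter | input = 1000 cells per well | detection = luciferase luminescence | dosing = single point, 20 µM final compound, 1% DMSO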
For orientation: A reporter such as luciferase makes a cellular process visible.
On to `CN(C)C1CCCC1OC(=O)C(O)(c1ccccc1)c1ccccc1` (centres undefined), for which the activation is inactive: -3.6%.
As for `CN(C)c1ccc(C(=O)NCC2(N(C)C)CCCCC2)cc1`, the activation is inactive: -3.89%.
Next, `Cc1ccccc1C(=O)NCC1(N2CCCCC2)CCCCC1`: inactive: 3.28%; `COc1ccc(C(=O)NCC2(N(C)C)CCCCC2)cc1`: inactive: 0.78%.
On to `O=C(NCC1(N2CCCCC2)CCCCC1)c1cccc(Br)c1`, for which the activation was inactive: -3.49%.
Next, `Cc1cc(C(=O)NCC2(N3CCCCC3)CCCCC2)ccc1[N+](=O)[O-]`: inactive: 1.06%; `CCN1CCCC(OC(=O)C2(O)c3ccccc3C=Cc3ccccc32)C1` (centres undefined): inactive: 0.66%.
Next, `O=C(NCC1(N2CCCCC2)CCCCC1)c1cc(F)c(F)cc1Cl`: inactive: -0.74%; `C=CCN1CCN(CCOC(=O)C(O)(c2ccccc2)c2ccccc2)CC1`: inactive: 0.87%; `CN1[C@@H]2CC[C@H]1CC(OC(=O)C(O)(c1ccccc1)c1ccccc1)C2` (some centres undefined): inactive: -4.06%.
As for `O=C(NCC1(N2CCCCC2)CCCCC1)c1cc([N+](=O)[O-])ccc1Cl`, the figure is inactive: -2.67%; as for `Cc1ccc(C(=O)NCC2(N3CCCCC3)CCCCC2)cc1`, inactive: -4.37%.
For the compound `COc1cc(SC)ccc1C(=O)NCC1(N(C)C)CCCCC1`, the activation is inactive: -3.35%.
As for `CCN(CC)CC(C)C(C)OC(=O)C(O)(c1ccccc1)c1ccccc1` (centres undefined), the figure is inactive: -1.96%; as for `CC(C)N1C(=O)CC2(CCN(CCOC(=O)C(O)(c3ccccc3)c3ccccc3)CC2)C1=O`, inactive: 1.83%.
As for `O=C(OC1CN2CCC1CC2)C(CO)(c1ccccc1)c1ccccc1` (centres undefined), the figure is inactive: -2.17%; as for `CC(C)Oc1ccc(C(=O)NCC2(N(C)C)CCCCC2)cc1`, inactive: 0.49%; as for `CN(C)c1cccc(C(=O)NCC2(N(C)C)CCCCC2)c1`, inactive: 1.49%.
As for `COc1ccc(Br)c(C(=O)NCC2(N3CCCCC3)CCCCC2)c1`, the figure is inactive: -3.8%; as for `COc1cc(C(=O)NCC2(N(C)C)CCCCC2)c([N+](=O)[O-])cc1OC`, inactive: -2.39%; as for `CN(C)C1(CNC(=O)c2ccc(Br)cc2)CCCCC1`, inactive: 0.08%.
`O=C(NCC1(N2CCCCC2)CCCCC1)c1cccc(Cl)c1`: the activation was inactive: -2.99%.
In the case of `COc1ccc(Cl)cc1C(=O)NCC1(N(C)C)CCCCC1`, the activation was inactive: -0.18%.
For the compound `COc1cccc(C(=O)NCC2(N3CCCCC3)CCCCC2)c1`, the activation was inactive: -2.44%.

These data come from PubChem BioAssay AID463104 (Sanford-Burnham Center for Chemical Genomics, 2010).
